Consider one molecule from patent US8987242B2, “Morpholinone compounds as factor IXA inhibitors” (Merck Sharp & Dohme Corp., priority 2008, dated 2015).

Sequences of proteins named here, by UniProt entry; tags and fusion partners are left off. Residues count along the entry.
UniProt P00740, 227-461 limits assumed: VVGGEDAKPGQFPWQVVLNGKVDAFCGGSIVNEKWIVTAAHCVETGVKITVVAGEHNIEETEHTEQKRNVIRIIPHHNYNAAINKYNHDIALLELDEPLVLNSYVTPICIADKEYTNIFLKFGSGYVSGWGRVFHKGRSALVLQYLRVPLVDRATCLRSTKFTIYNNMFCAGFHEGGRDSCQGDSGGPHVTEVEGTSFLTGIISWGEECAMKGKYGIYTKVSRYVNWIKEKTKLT
UniProt P00740, 47-191 partner limits assumed: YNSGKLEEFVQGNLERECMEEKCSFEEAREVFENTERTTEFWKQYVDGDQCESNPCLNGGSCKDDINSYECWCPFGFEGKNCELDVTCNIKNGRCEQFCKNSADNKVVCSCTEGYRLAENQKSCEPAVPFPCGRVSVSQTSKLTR

Broadly, the IC50 is the concentration at which inhibition is half-maximal.

This test deals with human factor IXa (Homo sapiens (Human), UniProt P00740). Nature of the test: Determination of inhibitory activity against factor IXa (SPECTROFLUOR FIXa fluorogenic substrate enzyme assay). The conditions noted are these: read-out: Factor IXa enzyme assay IC50; human factor IXa 2.0 μg/ml, SPECTROFLUOR FIXa 100 μM, 60 minutes at room temperature, pH 8.0; tested form: HCl.

With `CNC(=N)c1ccc(NC(=O)[C@H](O)[C@H]2OCCN(c3ccc(C(C)(C)C)cc3)C2=O)cc1`, the half-inhibitory concentration (IC50) was 0.032 µM.
